Yeast mating assay B: variants of the scFv Ab-14

Source: Li et al. 2023 (doi:10.1038/s41467-023-39022-2), MIT Lincoln Laboratory and A-Alpha Bio; data file from the FLAb repository.

All variants were tested on one target, the spike HR2 peptide PDVDLGDISGINAS (SARS-CoV-2).

Ab-14 is the parent antibody, in scFv form: VH, then three GGGGS repeats, then VL. The heavy chain is unchanged in all variants.
VH: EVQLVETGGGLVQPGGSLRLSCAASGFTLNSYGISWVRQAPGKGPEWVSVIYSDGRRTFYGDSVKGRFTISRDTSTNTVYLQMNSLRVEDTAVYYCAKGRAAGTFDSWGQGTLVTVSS
VL: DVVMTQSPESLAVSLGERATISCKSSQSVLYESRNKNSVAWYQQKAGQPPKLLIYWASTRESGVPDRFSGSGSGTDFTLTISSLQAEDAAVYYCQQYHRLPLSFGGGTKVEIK

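The parent was found by panning a naive human phage display library on the peptide. These sequences belong to a second round, designed from the earlier measurements on random variants of the parent. Several design methods are mixed in this list. The assay is AlphaSeq: two haploid yeast populations carry antibody and antigen on their surface. Pairs that bind mate more often; barcode pairs of the diploids are counted by sequencing. The ratio of observed to expected reads was calibrated, replicate by replicate, on BCL2-family standards whose Kd was known from biolayer interferometry. Mating was done six times.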

The parent's light chain CDRs are KSSQSVLYESRNKNSVA, WASTRES, QQYHRLPLS; each variant's own CDRs replace them letter for letter. Affinities are written as log10 Kd with Kd in nM; a lower number is a better binder. A mean of the replicates is given; it leaves out those without a signal. Where no diploid with the target was found in any replicate, the entry reads "not detected": below detection, most likely a poor binder, though not proof of it. A sequence measured in both rounds can read differently, since the two assays cover different ranges. The authors' rule: three or more of the six replicates give a measured affinity, fewer mean a poor binder. Of ten entries with the parent sequence, four were seen in most replicates (averages 0.34 to 2.37), three in one and three in none, so single entries are noisy. Nonspecific signal, from three strains lacking the peptide, appeared in 4% of pairings of all light chain designs, centred on 2.64 (5% of these signals below 1.59); values are not corrected for it. The control count says in how many pairings with the empty strains this scFv gave a signal.

CDR-L1,CDR-L2,CDR-L3,"log10 Kd (nM), mean",detected,signal with controls
KLTEAMASWRGARHNIA,DRTVTAP,QQYSRLPIT,0.13,6/6,0/18
KYSQSVLYESRNKNSVA,AASTRVS,QQYHRLPLS,0.06,6/6,0/18
KISISVLYEDDNKNSVA,WASTRES,QQYHRLPLS,0.66,4/6,0/18
KLSQSQLYESRNKNSVA,NASQRLS,QQYHRLPLS,0.01,6/6,0/18
KLQQSQLYESRNKNSVA,QASQRES,QQYHRLPLS,-0.09,6/6,1/18
KVSEFMRGLMMRKDSIA,DNETRES,QQYDRLPLS,0.76,6/6,1/18
MISQLYNMGTFAINSVA,QAEIRNA,QQYDRLPLI,2.24,6/6,1/18
TISQMSTLFSQSINNVA,EVSTREE,QQYDRLPLM,0.54,6/6,1/18
MINMEIGIEDMKWQAVA,SAHVRAH,QQYGRLPFS,2.42,2/6,0/18
KLSMSHLYESRNKNSVA,NASTRES,QQYHRLPLS,-0.09,6/6,2/18
QLGGLMTWEEKARNSVA,QQETRAE,QQYHHLPLS,0.46,6/6,2/18
YMSMYLDMQDDIQYGVA,DANVRNA,QQYQRLPLS,-0.07,6/6,0/18
KSSQSVLYEMRNKNSVA,WASTRES,QQYHRYPLS,not detected,0/6,0/18
KFGQGVHVESIMKNSIA,QTSTREE,QQYDRLPLS,0.27,6/6,1/18
KCPQSVPQESRNKNSVA,NASQREQ,QQYHRLPLS,0.77,6/6,2/18
KSSQSVLYESHNKNSVA,WASTRES,QQYHRLPLS,1.91,6/6,2/18
KISQMVRVGSTVSNSIA,EMVTRCN,QQYHRLPLA,not detected,0/6,0/18
KLYQSTLYESRNKNSVA,NASTRES,QQYHRLPLS,0.10,6/6,1/18
KLSQSDLYESRNKNNVA,HASQRES,QQYHRLPLS,-0.43,6/6,0/18
KLSQAVDYESRNKNSVA,SASTRES,QQYHRLPLS,0.55,6/6,0/18
MMSSLMGYESRHINNVA,QTSTREQ,QQYDRLPLV,0.12,6/6,1/18
KLSSITGHMQVEKNNVA,EMETREK,QQYNRLPLA,0.55,6/6,0/18
KSSASVLYESRNSNSVA,AASTRES,QQYHRLPLS,0.51,6/6,1/18
KSSQSVLYESDNKNSVA,NASTREK,QQYHRLPLS,0.43,6/6,0/18
KSSQSVKMESRNANSVA,DASTRES,QQYHRLPLS,0.39,6/6,0/18
IISQSVMGVSRNKNSVA,QTSERNY,QQYDRLPLS,0.90,6/6,0/18
TLGGVMDMTSRNVNSVA,DLTTRGN,QQYHRLPLS,-0.07,6/6,1/18
KLSQSVPYESRNKNSVA,DASTRCS,QQYHRLPLS,-0.12,6/6,4/18
QFARAMYHGGNDNQNIA,DAMTYIK,QQYSRLPLF,1.39,2/6,0/18
KSSQSVLYESRYLNSVA,QASTRES,QQYHRLPLS,1.02,6/6,0/18
KLQQSWMQQWRNKNSVA,HASTRLS,QQYHRLPLS,1.79,6/6,1/18
MISQLFNMGQFAINSVA,QASQRCE,QQYDRLPLI,2.03,6/6,0/18
KVSGFMRGLMMRKDSIA,DNETRSQ,QQYDRLPLS,1.87,6/6,3/18
KLEWSDLLESRNKQSVA,QASQRMS,QQYHRLPLS,-0.33,6/6,1/18
QLPNARPDGYLQKNNVA,EGTERSH,QQYMRLPLF,-0.11,6/6,2/18
KLPQSDLYESRNKNSVA,QASQRES,QQYHRLPLS,-0.07,6/6,2/18
KVSQSVLYESRVKNSVA,NASQRES,QQYHRLPLS,-0.02,6/6,0/18
KLQNFSQEHNGIWNSIA,DETMKHT,QHYDRLPLV,1.49,6/6,0/18
KQSESVLYESRNKNSVA,MASTRES,QQYGRLPLS,-0.01,6/6,0/18
KSSQSVYYLSRNKNSVA,AASTRES,QQYHRLPLS,1.63,6/6,0/18
MFSQLMEYGSRFKNSVA,QASTRED,QQYHWLPLS,1.67,6/6,1/18
KISMVAGHMSMSRNNVA,EMVTREN,QQYDRLPLS,0.35,6/6,1/18
KVSQSVLYESRVKNSVA,DASTRCS,QQYHRLPLE,-0.31,6/6,1/18
ILDQSQLYESRNKNAVA,NASTREM,QQYHRLPLS,-0.10,6/6,0/18
MISQLYNMGQFAINSVA,QAQTRNE,QQYDRLPLI,1.02,5/6,1/18
HITYGMMVHGRHGSSIA,QAEERAK,QQYDRLPLI,1.59,6/6,2/18
KLSQSVLYESRNDNSVA,WASTRES,QQYHRLPLS,1.41,6/6,0/18
TISGVMQQMSHSKSNVA,EVSTRLD,QQYVRLPLA,0.13,6/6,2/18
NLGGLDVNSTYEMDAVA,DVNEVGE,QHYSRLPLT,3.97,1/6,1/18
KLQQSELYESRNKNSVA,NASTRYS,QQYHRLPLS,-0.21,6/6,2/18
MFSQSVMYGSFNRNSVA,QTSTRES,QQYDRLPLS,2.10,1/6,1/18
KFQQSVMYEDRVKNSVA,NASDRMS,QQYHRLPLS,0.41,6/6,1/18
KVSEFMRGLMGRKDSIA,DNETRNS,QQYDRLPLS,1.69,6/6,2/18
KSSQSVLYESRNKNSVA,EASQRES,QQYHRLPLS,1.14,6/6,1/18
RIQMQFTWPGNARQNVA,EIQKAID,QQYAHLPLS,1.94,2/6,0/18
TIGQMFNGESRIRNSVA,QASTRES,QSYDRLPLA,0.61,6/6,1/18
KLSQSNKYESRMKNSVA,NASQRMQ,QQYHRLPLS,0.65,6/6,4/18
ILSQSVLMGMHTHNSVA,QATMRFN,QQYHRLPFM,1.33,6/6,1/18
QIQGKLQEGGNQGANVA,QGVESKN,QQYFRLPLT,0.65,6/6,0/18
KSNQSVLYTSRNKNSVA,GASTRES,QQYHRLPLS,0.66,6/6,1/18
MLSSVLHMLGVKQNSIA,DLVLRAN,QQYHRLPLM,not detected,0/6,0/18
NIYQAMHTLMQVKNNIA,DVTNRNN,QQYHRLPLS,0.68,6/6,0/18
KLSQSVPYESRNKNSVA,HASTRCS,QQYHRLPLS,0.57,6/6,1/18
KVSEFMRGLMMRTDSIA,DNQTRES,QQYDRLPLS,3.05,3/6,2/18